Here are results for one substance from patent publication EP2649091B1, “IMMUNE RESTRICTED PEPTIDES WITH INCREASED EFFICACY” (Stichting Het Nederlands Kanker Instituut, priority 2010, dated 2012).

This assay addresses HLA-A0201 (Homo sapiens, UniProt P04439, D140Y/D185E/D98H/E176V/E277Q/G131W/G231S/I119V/I121R/I166T/I218V/L300P/L318F/N151K/N90K/P208A/P217A/Q86G/Q94H/R138H/R169H/T345S). In kind it is binding.
Note: test concentration or dose not given here.

As for [3-PYRA]ILGFVFTL, the “% inhibition at T=4H and T=24H FP 4H” value is recorded as 87%; the “% inhibition at T=4H and T=24H FP 24H” value worked out at 85%.

The % inhibition is the drop in the measured response relative to a control, in per cent. High values mean a response far below the control, low ones a response near the control.
